SMILES strings stand for the structures.

Chains of the proteins cited; added tags and fusions are not shown. Lines headed by an entry give the natural chain unless they say otherwise; changes in a name come on top.
UniProt Q99572: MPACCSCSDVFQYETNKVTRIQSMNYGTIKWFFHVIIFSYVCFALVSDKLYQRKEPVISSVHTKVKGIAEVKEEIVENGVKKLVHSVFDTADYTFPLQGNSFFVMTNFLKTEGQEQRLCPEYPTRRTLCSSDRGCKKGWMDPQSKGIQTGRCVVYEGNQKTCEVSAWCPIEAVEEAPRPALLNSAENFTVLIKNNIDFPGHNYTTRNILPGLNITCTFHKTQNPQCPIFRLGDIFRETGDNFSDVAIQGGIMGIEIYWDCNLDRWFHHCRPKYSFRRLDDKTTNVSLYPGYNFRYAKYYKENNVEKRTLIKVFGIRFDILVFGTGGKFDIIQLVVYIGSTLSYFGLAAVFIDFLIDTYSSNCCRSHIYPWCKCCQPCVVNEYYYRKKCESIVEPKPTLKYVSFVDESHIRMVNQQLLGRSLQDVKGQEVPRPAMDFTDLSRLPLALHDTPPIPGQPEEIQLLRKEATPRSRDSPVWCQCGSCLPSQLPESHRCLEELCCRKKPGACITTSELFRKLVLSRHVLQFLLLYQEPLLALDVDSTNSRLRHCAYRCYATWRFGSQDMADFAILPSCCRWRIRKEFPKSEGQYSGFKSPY
UniProt Q64663: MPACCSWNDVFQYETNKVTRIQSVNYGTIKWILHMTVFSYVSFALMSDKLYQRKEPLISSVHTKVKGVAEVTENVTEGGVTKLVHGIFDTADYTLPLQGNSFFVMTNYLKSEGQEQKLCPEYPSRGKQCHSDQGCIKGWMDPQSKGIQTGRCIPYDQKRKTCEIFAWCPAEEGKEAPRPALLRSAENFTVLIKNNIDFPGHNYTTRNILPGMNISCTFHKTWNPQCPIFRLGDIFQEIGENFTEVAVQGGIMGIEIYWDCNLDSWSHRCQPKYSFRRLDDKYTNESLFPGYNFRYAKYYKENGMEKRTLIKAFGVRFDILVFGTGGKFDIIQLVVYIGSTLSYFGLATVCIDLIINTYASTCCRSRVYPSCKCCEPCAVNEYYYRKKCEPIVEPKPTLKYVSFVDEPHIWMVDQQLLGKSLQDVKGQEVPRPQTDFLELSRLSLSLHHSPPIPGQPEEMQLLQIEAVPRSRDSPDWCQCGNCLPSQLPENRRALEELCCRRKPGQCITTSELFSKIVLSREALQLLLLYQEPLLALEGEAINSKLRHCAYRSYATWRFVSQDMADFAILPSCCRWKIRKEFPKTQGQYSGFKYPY

For assay [1], the target named is T1, P2X7 (Homo sapiens (Human), UniProt Q99572). The assay is described as follows: P2X7 antagonism in human whole blood (LPS + Bz-ATP induced IL-1β release, ELISA). Conditions: LPS 30 ng/ml, Bz-ATP 1 mM. The assay is classed as cell-based.
For assay [2], the target named is T1, P2X7. The assay is described as follows: Radioligand binding, tritiated A-804598, human P2X7-1321N1 cell membranes.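 Further: ki obtained from the binding IC50 after correction for tracer concentration and tracer affinity.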 Conditions: 1 hour at 4° C.
Assay [3] has as its target T2, rat P2X7 (Rattus norvegicus (Rat), UniProt Q64663). The assay is described as follows: Radioligand binding, tritiated A-804598, rat P2X7-1321N1 cell membranes. Conditions: 1 hour at 4° C.
In assay [4] the target is T1, P2X7. The assay is described as follows: Ca2+ flux (FLIPR) in 1321N1 cells expressing recombinant human P2X7 channel.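 Further: Calcium-4 dye-loaded cells exposed to compound for 30 min before agonist addition, fluorescence change read 180 s after agonist.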 The assay is classed as cell-based. The note with it: 250 μM BzATP. For orientation: Calcium flux is commonly read through the fluorescence of an indicator in the cells.
In assay [5] the target is T2, rat P2X7. The assay is described as follows: Ca2+ flux (FLIPR) in 1321N1 cells expressing recombinant rat P2X7 channel.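 Further: Calcium-4 dye fluorescence change read 180 s after agonist addition, following 30 min cell preincubation with test compound.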 It counts as cell-based. Conditions: 250 μM BzATP.

One may read the IC50 as the concentration that inhibits the measured activity by half. On to `C[C@@H]1c2ncn(-c3ccc(F)cc3)c2CCN1C(=O)c1cccc(C(F)(F)F)c1Cl` (single isomer, unassigned) [Example 46, (4R*)-5-{[2-Chloro-3-(trifluoromethyl)phenyl]carbonyl}-1-(4-fluorophenyl)-4-methyl-4,5,6,7-tetrahydro-1H-imidazo[4,5-c]pyridine], for which the IC50 in assay [1] stood at 3980 nM.

The Ki is the equilibrium dissociation constant of an inhibitor or competing ligand from its target. Regarding `C[C@@H]1c2ncn(-c3ccc(F)cn3)c2CCN1C(=O)c1cccc(C(F)(F)F)c1Cl` (single isomer, unassigned) [Example 40, (R*)-(2-chloro-3-(trifluoromethyl)phenyl)(1-(5-fluoropyridin-2-yl)-4-methyl-6,7-dihydro-1H-imidazo[4,5-c]pyridin-5(4H)-yl)methanone], the figures for the Ki in assay [2] and in assay [3] were 7.1 nM and 7.8 nM, respectively. Further, the results for the IC50 in assay [4] and in assay [1] were 4 nM and 92 nM, respectively.

Consider `C[C@H]1c2nnn(-c3ncccn3)c2CCN1C(=O)c1cccc(C(F)(F)F)c1Cl` (single isomer, unassigned) [Example 87, (4S*)-5-{[2-Chloro-3-(trifluoromethyl)phenyl]carbonyl}-4-methyl-1-pyrimidin-2-yl-4,5,6,7-tetrahydro-1H-[1,2,3]triazolo[4,5-c]pyridine], for which, in assay [1], the IC50 turned out to be 3310 nM.

Consider `COc1ccnc(-n2nnc3c2CCN(C(=O)c2cccc(C(F)(F)F)c2Cl)C3)c1` [Example 136, (2-Chloro-3-(trifluoromethyl)phenyl)(1-(4-methoxypyridin-2-yl)-6,7-dihydro-1H-[1,2,3]triazolo[4,5-c]pyridin-5(4H)-yl)methanone], for which the IC50 in assay [1] was 63 nM.

`O=C(c1cccc(C(F)(F)F)c1Cl)N1CCc2c(nnn2-c2cnccn2)C1` [Example 91, 5-{[2-Chloro-3-(trifluoromethyl)phenyl]carbonyl}-1-pyrazin-2-yl-4,5,6,7-tetrahydro-1H-[1,2,3]triazolo[4,5-c]pyridine]: the IC50 in assay [1] is 316 nM.

For the compound `CC1c2nnn(-c3ncccn3)c2CCN1C(=O)c1cccc(C(F)(F)F)c1Cl` (stereo not drawn) [Example 80, 5-{[2-Chloro-3-(trifluoromethyl)phenyl]carbonyl}-4-methyl-1-pyrimidin-2-yl-4,5,6,7-tetrahydro-1H-[1,2,3]triazolo[4,5-c]pyridine], in assay [1], the IC50 amounted to 16 nM.

With `C[C@@H]1c2ncn(-c3ccccn3)c2CCN1C(=O)c1cccc(C(F)(F)F)c1F` (single isomer, unassigned) [Example 42, (4R*)-5-{[2-Fluoro-3-(trifluoromethyl)phenyl]carbonyl}-4-methyl-1-pyridin-2-yl-4,5,6,7-tetrahydro-1H-imidazo[4,5-c]pyridine], in assay [1], the IC50 was 2510 nM.

For `CC1c2nnn(-c3cnccn3)c2CCN1C(=O)c1cccc(C(F)(F)F)c1Cl` (stereo not drawn) [Example 73, 5-{[2-Chloro-3-(trifluoromethyl)phenyl]carbonyl}-4-methyl-1-pyrazin-2-yl-4,5,6,7-tetrahydro-1H-[1,2,3]triazolo[4,5-c]pyridine], the IC50 in assay [1] is 16 nM.

Take `CC1c2ncn(-c3ccccc3)c2CCN1C(=O)c1cccc(C(F)(F)F)c1Cl` (stereo not drawn) [Example 12, (2-Chloro-3-(trifluoromethyl)phenyl)(4-methyl-1-phenyl-6,7-dihydro-1H-imidazo[4,5-c]pyridin-5(4H)-yl)methanone]: the IC50 in assay [1] is 631 nM.

`CC1c2ncn(-c3ccc(F)cn3)c2CCN1C(=O)c1cccc(C(F)(F)F)c1Cl` (stereo not drawn) [Example 11, (2-Chloro-3-(trifluoromethyl)phenyl)(1-(5-fluoropyridin-2-yl)-4-methyl-6,7-dihydro-1H-imidazo[4,5-c]pyridin-5(4H)-yl)methanone] yielded a Ki in assay [2] of 126 nM. For the same compound, the IC50 in assay [4] came to 22.3 nM; in assay [5], 671 nM; in assay [1], 1590 nM.

For `C[C@H]1c2nnn(-c3cnccn3)c2CCN1C(=O)c1cccc(C(F)(F)F)c1Cl` (single isomer, unassigned) [Example 75, (4 S*)-5-{[2-Chloro-3-(trifluoromethyl)phenyl]carbonyl}-4-methyl-1-pyrazin-2-yl-4,5,6,7-tetrahydro-1H-[1,2,3]triazolo[4,5-c]pyridine], in assay [1], the IC50 was 13 nM.

With `CC1c2nnn(-c3cnccn3)c2C=CN1C(=O)c1cccc(C(F)(F)F)c1Cl` (stereo not drawn) [Example 72, 5-{[2-Chloro-3-(trifluoromethyl)phenyl]carbonyl}-4-methyl-1-pyrazin-2-yl-4,5-dihydro-1H-[1,2,3]triazolo[4,5-c]pyridine], in assay [1], the IC50 was found to be 126 nM.

In the case of `O=C(c1cccc(C(F)(F)F)c1Cl)N1CCc2c(nnn2-c2ncccn2)C1` [Example 65, 5-{[2-Chloro-3-(trifluoromethyl)phenyl]carbonyl}-1-pyrimidin-2-yl-4,5,6,7-tetrahydro-1H-[1,2,3]triazolo[4,5-c]pyridine], the IC50 in assay [5] stood at 8.7 nM; in assay [1], 79 nM.

As for `C[C@@H]1c2nnn(-c3cnccn3)c2CCN1C(=O)c1cccc(C(F)(F)F)c1Cl` (single isomer, unassigned) [Example 74, (4R*)-5-{[2-Chloro-3-(trifluoromethyl)phenyl]carbonyl}-4-methyl-1-pyrazin-2-yl-4,5,6,7-tetrahydro-1H-[1,2,3]triazolo[4,5-c]pyridine], the IC50 in assay [1] was determined as 5010 nM.
